# Experimental data from patent US20240399118A1, “INTRALUMINAL LOCAL DRUG DELIVERY” (Isola Therapeutics, Inc., priority 2023, published 2024).
# Tests used:
# porcine model = details: pig, in vivo
# Description: Animals tested were of the porcine species from the breed Yorkshire Cross. The animals underwent surgery to place two (2) CVL catheters, 1 for infusion and 1 for plasma collection. Each animal received ˜1 L of lavage solution. The animals were allowed to recover and stabilize. Once the animals were awake and mobile, the animals were infused with 50 mcg/mL for 30 minutes.
# [1] = Plasma concentration of diclofenac after local lavage delivery to the lungs in a porcine model (LC/MS); assay type: in vivo, porcine (Yorkshire Cross); details: local vs systemic administration
# Description: Studies were performed using a porcine model to study the distribution of diclofenac in the system when administered locally (via direct administration to the lungs). The purpose of the study was to determine the systemic concentration of diclofenac after a maximal 30 minute local lavage, taking samples at specific time points for up to 30 minutes. […] Each animal received ˜1 L of lavage solution. The animals were allowed to recover and stabilize. […] For all concentration measurements herein, the sample extracts were analyzed for diclofenac by liquid chromatography/mass spectrometry (LC/MS). Spectra were compared to the validated protocol and standard curve generated for the study.
fold lower plasma Cmax than with systemic administration [1],SMILES,adverse events (porcine model),clinical observations (porcine model),lung tissue damage (porcine model),systemic effects of local delivery (porcine model)
,"C[C@@H]1C[C@H]2[C@@H]3CCC4=CC(=O)C=C[C@]4(C)[C@@]3(F)[C@@H](O)C[C@]2(C)[C@@]1(O)C(=O)COP(=O)([O-])[O-].[Na+].[Na+] [Dexamethasone sodium phosphate, disodium; [2-[(8S,9R,10S,11S,13S,14S,16R, 17R)-9-fluoro-11,17-dihydroxy-10,13,16-trimethyl-3-oxo-6,7,8, 11, 12, 14, 15, 16-octahydrocyclopenta[a]phenanthren-17-yl]-2-oxoethyl] phosphate]",did not have any adverse events,no abnormal clinical observations,no signs of lung tissue damage,
more than 2000 fold,"O=C(O)Cc1ccccc1Nc1c(Cl)cccc1Cl [Diclofenac, 2-[2-(2,6-dichloroanilino)phenyl]acetic acid]",,,,did not result in significant systemic effects
